Measurements as given in ChEMBL document CHEMBL1140563, “Redefining the structure-activity relationships of 2,6-methano-3-benzazocines. 5. Opioid receptor binding properties of N-((4'-phenyl)-phenethyl) analogues of 8-CAC” (Bioorg Med Chem Lett, 2007).

Amino acid sequences for entries named in this document (tags omitted). A change or cut given only in a name is not applied to a line headed by its entry.
UniProt P41145: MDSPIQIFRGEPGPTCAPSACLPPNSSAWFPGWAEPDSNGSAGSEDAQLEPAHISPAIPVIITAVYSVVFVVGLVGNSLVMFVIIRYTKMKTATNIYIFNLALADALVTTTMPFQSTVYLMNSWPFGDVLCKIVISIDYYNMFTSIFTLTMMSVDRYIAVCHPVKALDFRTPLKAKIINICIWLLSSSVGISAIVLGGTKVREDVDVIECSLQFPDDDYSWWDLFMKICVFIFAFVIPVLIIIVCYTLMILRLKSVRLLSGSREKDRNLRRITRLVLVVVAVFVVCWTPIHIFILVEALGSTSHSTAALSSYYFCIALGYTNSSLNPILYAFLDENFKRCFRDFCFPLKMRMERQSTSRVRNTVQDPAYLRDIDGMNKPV

Assays:
[1] = target: T1, Kappa-type opioid receptor (Homo sapiens, UniProt P41145); test: Agonist activity at human kappa opioid receptor expressed in CHO cell membrane by [35S]GTP-gamma-S binding assay; format: functional, cell membranes
[2] = target: T1, Kappa-type opioid receptor; test: biochemical; format: cell-based, CHO

| SMILES | EC50 [1] [nM] | Ki [2] [nM] |
| --- | --- | --- |
| C[C@H]1C2Cc3ccc(C(=O)NCCc4ccc(-c5ccccc5)cc4)cc3[C@@]1(C)CCN2CC1CC1 | 4.4 | – |
| C[C@H]1C2Cc3ccc(C(=O)NCCc4cccc(-c5ccccc5)c4)cc3[C@@]1(C)CCN2CC1CC1 | – | 2.2 |
